In IntAct's records for PubMed 35512704:

B1: RAC-alpha serine/threonine-protein kinase (Homo sapiens), P31749 (parent)
chain: MSDVAIVKEGWLHKRGEYIKTWRPRYFLLKNDGTFIGYKERPQDVDQREAPLNNFSVAQCQLMKTERPRPNTFIIRCLQWTTVIERTFHVETPEEREEWTTAIQTVADGLKKQEEEEMDFRSGSPSDNSGAEEMEVSLAKPKHRVTMNEFEYLKLLGKGTFGKVILVKEKATGRYYAMKILKKEVIVAKDEVAHTLTENRVLQNSRHPFLTALKYSFQTHDRLCFVMEYANGGELFFHLSRERVFSEDRARFYGAEIVSALDYLHSEKNVVYRDLKLENLMLDKDGHIKITDFGLCKEGIKDGATMKTFCGTPEYLAPEVLEDNDYGRAVDWWGLGVVMYEMMCGRLPFYNQDHEKLFELILMEEIRFPRTLGPEAKSLLSGLLKKDPKQRLGGGSEDAKEIMQHRFFAGIVWQHVYEKKLSPPFKPQVTSETDTRYFDEEFTAQMITITPPDQDDSMECVDSERRPHFPQFSYSASGTA
partner: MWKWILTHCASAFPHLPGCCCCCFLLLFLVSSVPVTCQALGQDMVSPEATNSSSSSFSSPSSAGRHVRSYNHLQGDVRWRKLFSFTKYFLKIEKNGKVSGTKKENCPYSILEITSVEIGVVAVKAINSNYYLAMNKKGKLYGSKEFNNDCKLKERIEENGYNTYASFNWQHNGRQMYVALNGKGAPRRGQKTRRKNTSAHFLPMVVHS
B2: RAC-alpha serine/threonine-protein kinase (Homo sapiens), P31749 (parent)
chain: B1 chain
partner: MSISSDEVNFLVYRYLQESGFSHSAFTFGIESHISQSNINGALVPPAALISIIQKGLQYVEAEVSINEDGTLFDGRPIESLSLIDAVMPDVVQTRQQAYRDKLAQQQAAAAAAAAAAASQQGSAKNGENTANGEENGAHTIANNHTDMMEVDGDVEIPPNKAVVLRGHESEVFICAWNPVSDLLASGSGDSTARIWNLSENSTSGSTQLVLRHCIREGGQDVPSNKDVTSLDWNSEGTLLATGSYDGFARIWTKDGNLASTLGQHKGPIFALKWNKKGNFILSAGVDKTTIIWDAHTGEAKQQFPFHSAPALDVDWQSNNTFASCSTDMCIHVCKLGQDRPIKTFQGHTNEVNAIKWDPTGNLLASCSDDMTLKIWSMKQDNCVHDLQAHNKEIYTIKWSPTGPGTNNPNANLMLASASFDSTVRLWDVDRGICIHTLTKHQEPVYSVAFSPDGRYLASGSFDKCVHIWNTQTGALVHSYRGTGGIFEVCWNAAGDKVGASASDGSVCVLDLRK
B3: RAC-alpha serine/threonine-protein kinase (Homo sapiens), P31749 (parent)
chain: B1 chain
partner: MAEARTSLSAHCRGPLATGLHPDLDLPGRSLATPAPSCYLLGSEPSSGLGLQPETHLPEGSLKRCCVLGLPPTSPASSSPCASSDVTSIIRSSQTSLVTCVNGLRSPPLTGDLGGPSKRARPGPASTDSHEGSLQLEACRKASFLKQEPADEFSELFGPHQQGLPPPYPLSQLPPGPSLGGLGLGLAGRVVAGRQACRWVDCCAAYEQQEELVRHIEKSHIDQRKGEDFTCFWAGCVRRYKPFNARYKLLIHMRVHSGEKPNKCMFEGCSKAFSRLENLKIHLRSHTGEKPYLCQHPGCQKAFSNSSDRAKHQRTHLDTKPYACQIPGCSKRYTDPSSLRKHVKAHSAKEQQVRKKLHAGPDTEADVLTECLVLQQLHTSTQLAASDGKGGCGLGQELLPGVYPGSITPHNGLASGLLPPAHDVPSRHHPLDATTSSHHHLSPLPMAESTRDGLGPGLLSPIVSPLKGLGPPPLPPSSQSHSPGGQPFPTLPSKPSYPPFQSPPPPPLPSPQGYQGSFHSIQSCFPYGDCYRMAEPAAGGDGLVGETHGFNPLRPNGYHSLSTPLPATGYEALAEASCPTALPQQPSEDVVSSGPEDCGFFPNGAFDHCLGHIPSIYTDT
B4: RAC-alpha serine/threonine-protein kinase (Homo sapiens), P31749 (parent)
chain: B1 chain
partner: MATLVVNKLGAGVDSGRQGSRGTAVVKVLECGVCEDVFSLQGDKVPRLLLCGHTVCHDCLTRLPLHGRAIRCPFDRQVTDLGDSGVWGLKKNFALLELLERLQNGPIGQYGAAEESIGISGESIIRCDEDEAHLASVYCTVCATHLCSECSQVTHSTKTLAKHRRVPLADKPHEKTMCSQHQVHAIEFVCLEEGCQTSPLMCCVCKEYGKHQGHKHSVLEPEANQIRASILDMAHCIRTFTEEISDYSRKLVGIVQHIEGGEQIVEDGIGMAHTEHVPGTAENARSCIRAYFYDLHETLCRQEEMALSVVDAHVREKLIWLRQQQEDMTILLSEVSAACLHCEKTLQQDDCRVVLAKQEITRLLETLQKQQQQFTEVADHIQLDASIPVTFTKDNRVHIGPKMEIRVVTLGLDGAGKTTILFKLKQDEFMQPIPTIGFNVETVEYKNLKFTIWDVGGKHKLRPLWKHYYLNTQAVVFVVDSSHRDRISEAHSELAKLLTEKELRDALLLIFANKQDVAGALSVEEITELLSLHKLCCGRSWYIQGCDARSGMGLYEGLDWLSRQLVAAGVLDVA
B5: RAC-alpha serine/threonine-protein kinase (Homo sapiens), P31749 (parent)
chain: B1 chain
partner: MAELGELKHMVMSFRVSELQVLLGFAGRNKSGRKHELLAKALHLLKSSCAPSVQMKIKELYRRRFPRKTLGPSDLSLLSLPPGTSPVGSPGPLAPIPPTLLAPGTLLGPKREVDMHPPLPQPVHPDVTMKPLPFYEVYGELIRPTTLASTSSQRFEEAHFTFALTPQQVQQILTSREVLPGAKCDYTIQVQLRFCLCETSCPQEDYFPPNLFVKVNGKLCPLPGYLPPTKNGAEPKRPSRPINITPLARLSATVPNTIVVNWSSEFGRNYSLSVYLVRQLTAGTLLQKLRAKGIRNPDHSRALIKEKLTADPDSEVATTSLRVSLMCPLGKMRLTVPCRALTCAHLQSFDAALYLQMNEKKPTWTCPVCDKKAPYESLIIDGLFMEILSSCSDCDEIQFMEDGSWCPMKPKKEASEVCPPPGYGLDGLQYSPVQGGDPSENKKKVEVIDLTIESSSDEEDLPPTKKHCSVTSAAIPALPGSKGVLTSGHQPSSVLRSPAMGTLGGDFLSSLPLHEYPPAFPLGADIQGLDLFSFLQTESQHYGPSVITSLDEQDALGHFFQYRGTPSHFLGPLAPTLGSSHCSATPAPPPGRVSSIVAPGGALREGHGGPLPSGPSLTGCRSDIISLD

Variants of: B1
Settings: with fgf10_human FGF10, O15520

Variant | effect of a mutation on the interaction
E17K | causing an interaction

Variants of: B2
Settings: with tbl1r_human TBL1XR1, Q9BZK7

Variant | effect of a mutation on the interaction
E17K | with no effect

Variants of: B3
Settings: with glis1_human GLIS1, Q8NBF1

Variant | effect of a mutation on the interaction
E17K | with no effect

Variants of: B4
Settings: with tri23_human TRIM23, P36406

Variant | effect of a mutation on the interaction
E17K | with no effect

Variants of: B5
Settings: with pias3_human PIAS3, Q9Y6X2

Variant | effect of a mutation on the interaction
E17K | causing an interaction
